{
  "source": "ChEMBL document CHEMBL5149971",
  "about": "“Pyridones in drug discovery: Recent advances” (Bioorg Med Chem Lett, 2021)",
  "key": {"Human rhinovirus sp.": {"test_system": "Human rhinovirus sp.", "assay": "Irreversible inhibition of human rhinovirus 3C protease assessed as Kobs/[I] by FRET assay"}, "rhinovirus B14": {"test_system": "rhinovirus B14", "assay": "Irreversible inhibition of human rhinovirus 14 3C protease assessed as Kobs/[I] by FRET assay"}},
  "data": [
    {"smiles": "CCOC(=O)/C=C/[C@H](CCC(N)=O)NC(=O)[C@H](Cc1ccccc1)NC(=O)[C@H](CC(C)C)NC(=O)OCc1ccccc1", "values": [
      {"measurement": "K", "setting": "Human rhinovirus sp.", "result": 25000, "unit": "M⁻¹ s⁻¹"}
    ]},
    {"smiles": "CCOC(=O)/C=C/[C@H](C[C@@H]1CCNC1=O)NC(=O)[C@@H](CC(=O)[C@@H](NC(=O)c1cc(C)on1)C(C)C)Cc1ccc(F)cc1", "values": [
      {"measurement": "K", "setting": "rhinovirus B14", "result": 147000, "unit": "M⁻¹ s⁻¹"}
    ]}
  ]
}
